Patent publication US20110009343A1, “MODULATORS OF AMYLOID AGGREGATION” (Praecis Pharmaceuticals, Inc., priority 1995, published 2011)

Protein sequences, listed by entry. Tags and fused reporters are not part of them. Residues count along the entry.
UniProt P05067, 672-711: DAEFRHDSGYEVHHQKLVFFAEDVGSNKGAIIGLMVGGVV

Experiments:
Assay type in all cases: biochemical
Aβ1-40 = molecular target: T1, Aβ1-40 (Homo sapiens, UniProt P05067); experiment: Nucleation assay (turbidity, A405 nm); settings: Table II; 100 mole % vs 50 μM Aβ1-40;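 also: synthetic Aβ monomer polymerization followed by turbidity in 96-well plates with continuous shaking, read every 15 minutes over 5 hours, compared against wells lacking test compound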
T1 construct: (β-AP1-40) was obtained commercially from Bachem (Torrance, Calif.); purchased Bachem (Torrance, Calif.)

Aβ(1-40) peptide [1] = molecular target: T2, Aβ(1-40) peptide (Homo sapiens, UniProt P05067); experiment: Seeded static assay (SSA), Thioflavin-T fluorescence; settings: inhibitor tested at 100 μM and 10 μM
T2 construct: (β-AP1-40) was obtained commercially from Bachem (Torrance, Calif.); purchased Bachem (Torrance, Calif.)

Aβ(1-40) peptide [2] = molecular target: T2, Aβ(1-40) peptide; experiment: Shaken plate aggregation assay (absorbance 405 nm); settings: % conc relative to Aβ(1-40) as printed in cell

| Compound | Fold Increase in Lag Time (Aβ1-40) [fold] | Effect in Seeded Static Assay (Aβ(1-40) peptide [1]) | Effect in shaken plate assay (Aβ(1-40) peptide [2]) |
| --- | --- | --- | --- |
| CC(C)[C@H](NC(=O)[C@H](CCC(=O)O)NC(=O)[C@H](Cc1ccc(O)cc1)NC(=O)CNC(=O)[C@H](CO)NC(=O)[C@H](CC(=O)O)NC(=O)[C@H](Cc1c[nH]cn1)NC(=O)[C@H](CCCNC(=N)N)NC(=O)[C@H](Cc1ccccc1)NC(=O)[C@H](CCC(=O)O)NC(=O)[C@H](C)NC(=O)[C@H](CC(=O)O)NC(=O)CCCC[C@@H]1SC[C@@H]2NC(=N)N[C@@H]21)C(=O)N[C@@H](Cc1c[nH]cn1)C(=O)N[C@@H](Cc1c[nH]cn1)C(=O)N[C@@H](CCC(N)=O)C(=O)O [PPI-172] | 1.2 | – | – |
| CC(C)[C@H](NC(=O)[C@H](CCC(=O)O)NC(=O)[C@H](Cc1ccc(O)cc1)NC(=O)CNC(=O)[C@H](CO)NC(=O)[C@H](CC(=O)O)NC(=O)[C@H](Cc1c[nH]cn1)NC(=O)[C@H](CCCNC(=N)N)NC(=O)[C@H](Cc1ccccc1)NC(=O)[C@H](CCC(=O)O)NC(=O)[C@H](C)NC(=O)[C@H](CC(=O)O)NC(=O)CC[C@@H](C)[C@H]1CC[C@H]2[C@@H]3[C@H](O)C[C@@H]4C[C@H](O)CC[C@]4(C)[C@H]3C[C@H](O)[C@]12C)C(=O)N[C@@H](Cc1c[nH]cn1)C(=O)N[C@@H](Cc1c[nH]cn1)C(=O)N[C@@H](CCC(N)=O)C(=O)O [PPI-174] | – | ++ (A strong inhibitor of aggregation. The rate of aggregation in the presence of the inhibitor was decreased compared to the control by at least 30-50%) | – |
| Candidate Inhibitor 180: Aβ1-15 modified with (−)-menthoxy acetic acid | – | ++ (A strong inhibitor of aggregation. The rate of aggregation in the presence of the inhibitor was decreased compared to the control by at least 30-50%) | None |
